The record followed here is patent publication US20170268015A1.

This assay has as its target Tumor Necrosis Factor alpha (TNF-alpha) (UniProt P01375). The assay can be described thus: cell-based or functional assay.

On to “anti-TNF-alpha antibody produced in Aurantiochytrium sp.”, for which the inhibition of TNF-alpha-induced killing of L929 cells (CellTiter-Glo viability), EC50 stood at 0.13 µg/mL.
